Assay results as given in patent US20050233973A1, “Tri-peptides for antidepressant applications” (priority 1997, published 2005).

Tests used:
Conditions in all cases: tracer 125I-TRH; assay standard = 1.00
[1] = test system: 465B12 antibody (raised to TRH)
[2] = test system: EEP (R^2=Glu) antibody (580B6)
[3] = test system: CR-V3-B53 antibody (raised to TRH)

## NC(=O)[C@@H]1CCCN1C(=O)[C@H](Cc1ccccc1)NC(=O)[C@@H]1CCC(=O)N1 [R^2 = Phe, pGlu-Phe-Pro-NH2]
[1]
  relative potency for displacement of assay tracer: 6.79
[2]
  relative potency for displacement of assay tracer: 6.53
[3]
  relative potency for displacement of assay tracer: 0.738
